From US9526737B2, “Oxysterols for activation of hedgehog signaling, osteoinduction, antiadipogenesis, and Wnt signaling” (THE REGENTS OF THE UNIVERSITY OF CALIFORNIA, priority 2007, dated 2016) come the findings set out here.

This experiment concerns hedgehog signaling pathway. The experiment is described as follows: Hedgehog signaling pathway activation (8X-Gli reporter, Gli 1 and Patched Q-RT-PCR, cyclopamine inhibition). It is filed as cell-based. Conditions: assessed by at least one of Gli reporter, Gli 1/Patched expression. The protocol:
M2-10B4 bone marrow stromal cells were transfected with an 8XGli luciferase reporter or the empty vector (pGL3b). Cells were subsequently treated with control vehicle, 5 μM Oxy49, or 400 ng/ml recombinant human sonic hedgehog (Shh) as positive control. After 48 hours of treatments, reporter luciferase activity was measured and normalized to Renilla luciferase activity (See FIG. 14). […] M2-10B4 bone marrow stromal cells were transfected with an 8XGli luciferase reporter or the empty vector (pGL3b). Cells were subsequently treated with control vehicle, 5 μM Oxy34, or 400 ng/ml recombinant human sonic hedgehog (Shh) as positive control. After 48 hours of treatments, reporter luciferase activity was measured and normalized to Renilla luciferase activity (See FIG. 15). […] After 48 hours of treatments, mRNA was extracted from cells and analyzed by Q-RT-PCR for expression of hedgehog target genes Gli 1 and Patched (See FIGS. 16A and 16B). […] All of the oxysterols presented in FIG. 1 activated the hedgehog signaling pathway as assessed by at least one of the following methodologies: • 1. Luciferase reporter activity using a reporter construct with 8X-Gli binding sites • 2. Q-RT-PCR analysis of the induction of hedgehog pathway target gene expression Gli 1 and Patched • 3.

B1: BMP2: recombinant human BMP2 (R&D Systems) (protein, UniProt P12643 283-396, looked up)
Bone morphogenetic protein 2: QAKHKQRKRLKSSCKRHPLYVDFSDVGWNDWIVAPPGYHAFYCHGECPFPLADHLNSTNHAIVQTLVNSVNSKIPKACCVPTELSAISMLYLDENEKVVLKNYQDMVVEGCGCR
Turning to B1, the “Activation of the hedgehog signaling pathway” value is listed as “no evidence of hedgehog signaling being induced”.
